High-throughput results (PubChem BioAssay)
In the library only some 0.42% were active in any assay of this set; here they are far more common.
Vif-APOBEC3G blk = Vif-A3G binding inhibition; HeLa A3G-eYFP + Vif (tagged APOBEC3G with the HIV-1 protein that degrades it), YFP fluorescence, overnight; Potency, µM (series often up to 46.1 µM), inactives show at the top dose activity, negative = active, actives largely listed as inhibitors; 0.076% of 410,000 active; Q9HC16; further: on the % scale 0 is the no-effect control and ±100 the full control effect; nearly all actives have a fitted effect of over 60% in size
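Read-out is eYFP fluorescence (Ex 488/Em 500-530) from Vif-expressing HeLa A3G-eYFP cells; more signal means A3G escaped Vif-mediated degradation. Cells plated overnight, compound pinned in, incubated overnight at 37 deg C.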
Rango dissoc inh = inhibitors of RanGTP-induced Rango-importin beta complex dissociation. O95149+P62826. Biochemical FRET Rango-importin beta, RanGTP-induced dissociation. Potency, µM (titrated, usually from 46.1 µM), without a hit: at the top dose activity change, negative = inhibition. 0.071% of 340,000 active. AID 540253; calls by dose curve; further: % of control where 0% means no effect; nearly all actives have a fitted effect of over 45% in size
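Rango FRET biosensor (snurportin-1 IBB flanked by N-terminal EYFP and C-terminal CFP10) at 0.1 uM, with 0.25 uM importin beta in PBS, 1mM DTT, 0.02% Tween-20, 0.1% BSA. 0.6 uM Ran, 2mM GTP and 0.2 uM RCC1 were then added for 45 min at room temperature. Inhibition read as loss of FRET rise.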
Rango complex inh = inhibitors of Rango-importin beta complex formation. Rango CFP/YFP FRET sensor + importin beta, 45 min. Potency, µM (highest dose often 92.2 µM), for the others: at the highest dose inhibition of complex formation. 0.031% of 340,000 active. AID 540263; calls by dose curve;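 further: 0% = DMSO wells and 100% = buffer wells lacking importin beta; nearly all actives have a fitted effect of over 15% in size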
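FRET biosensor (snurportin 1 IBB flanked by EYFP and cerulean), 50 nM, with compound 5 min, then 0.125 microM importin beta in PBS, 1 mM DTT, 0.02% Tween-20, 0.1% BSA. CFP/YFP ratio read after 45 min at room temperature; pre-read flags interference.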
Vif-APOBEC3F blk = Vif-A3F binding inhibition | HeLa A3F-eYFP + Vif (tagged APOBEC3F with the HIV-1 protein that degrades it), YFP fluorescence increase | Potency, µM (doses to about 46.1 µM), inactives show top-dose activity, negative = active | 0.2% of 390,000 active | AID 602313; further: % of control where 0% means no effect; nearly all actives have a fitted effect of over 65% in size
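HeLa cells stably expressing Vif plus C-terminally eYFP-tagged A3F were seeded, incubated overnight at 37 deg C, dosed with compound, incubated overnight again at 37 deg C. Yellow fluorescence (Ex 488/Em 500-530) reported blocked Vif-mediated A3F-eYFP degradation.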
Epigenetic reg = derepresses silenced GFP reporter in murine cells; murine LDR cells, GFP reporter derepression, 30 h; Potency, µM (titrated, usually from 53.9 µM), for inactives: top-dose GFP activation, hits mostly activators; 0.2% of 280,000 active; AID 1865; further: % of control where 0% means no effect; nearly all actives have a fitted effect of over 60% in size
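Derepression of a silenced CMV-GFP reporter in murine LDR cells is scored by enumerating GFP-positive cells with a laser-scanning microplate cytometer after 30 hours of treatment at 37 C.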
The depositor's hits bear a star; u = inconclusive; x = not tested or not shown; ! = not active in a repeat; [ ] = remark or other dose. Unless noted, the call rests on the fitted dose curve; in most records, active means well fitted curve in the direction sought with a large enough effect; inconclusive means small, poorly fitted or top-dose-only effect, or another doubt; inactive means no such curve, though single readings can be large; an effect the other way counts as inactive or inconclusive. Potency means the concentration at half of the fitted maximal effect.

#	structure	Rango complex inh	Epigenetic reg	Rango dissoc inh
1	Cc1cc(=O)oc2cc(OCC(=O)N3c4ccccc4CC3C)ccc12 (stereo not given)	-4.4%	2.8%	0.2%
2	Cc1cc(=O)oc2cc(OCC(=O)N3CC(C)OC(C)C3)ccc12 (stereo not given)	-0.9%	-2.9%	-22.0%
3	CCN1/C(=C\C=C2\C(=O)N(C)C(=S)N2C)Sc2ccccc21	-0.3%	2.6%	8.2%
4	CCOC(=O)/C(=C/C=C1\Sc2cc(OCC)c(OCC)cc2N1CC)C(C)=O	u	22.4µM*	u
5	CCOC(=O)/C(=C\C=C1/Sc2cc(OCC)c(OCC)cc2N1CC)C(C)=O	u	5.62µM*	u
6	Cc1ccc(-n2nc3cc(C)c(N)cc3n2)cc1	u	-0.2%	18.4µM*
7	N#C/C(=C\c1ccccc1[N+](=O)[O-])C(=O)NCc1ccccc1	u	0.7%	u
8	CCOC(=O)c1cc(-c2ccc(F)cc2)n(CCC(=O)NC2CCC(C)CC2)c1C (stereo not given)	x	-1.1%	x

#	Vif-APOBEC3G blk	Vif-APOBEC3F blk
1	3.98µM*	0.0%
2	-2.1%	-7.6%
3	-0.1%	12.6%
4	8.7%	5.7%
5	9.1%	-89.4%
6	-8.3%	x
7	-5.9%	12.6µM*
8	1.5%	-6.7%

4 structures already listed, sorted by molar mass, falling.
#	structure	Rango complex inh	Epigenetic reg	Rango dissoc inh
4	CCOC(=O)/C(=C/C=C1\Sc2cc(OCC)c(OCC)cc2N1CC)C(C)=O	u	22.4µM*	u
1	Cc1cc(=O)oc2cc(OCC(=O)N3c4ccccc4CC3C)ccc12 (stereo not given)	-4.4%	2.8%	0.2%
3	CCN1/C(=C\C=C2\C(=O)N(C)C(=S)N2C)Sc2ccccc21	-0.3%	2.6%	8.2%
7	N#C/C(=C\c1ccccc1[N+](=O)[O-])C(=O)NCc1ccccc1	u	0.7%	u

#	Vif-APOBEC3G blk	Vif-APOBEC3F blk
4	8.7%	5.7%
1	3.98µM*	0.0%
3	-0.1%	12.6%
7	-5.9%	12.6µM*

(more compounds)
#	structure	Rango complex inh	Epigenetic reg	Rango dissoc inh
9	COc1cc(/C=C2\SC(=S)N(NC(=O)c3ccccc3O)C2=O)ccc1O	u	x	-2.6%
10	CCCCN1CC[C@H]2C=CC[C@@H](C(=O)NC3CCCCC3)[C@H]2C1=O	x	x	x
11	CCc1ccc(CNC(=O)c2ccc(Cn3c(=O)c4cccn4c4cccnc43)cc2)cc1	x	3.8%	x
12	Cc1cccc(CNC(=O)c2ccc(Cn3c(=O)c4cccn4c4cccnc43)cc2)c1	x	17.8µM*	x
13	CCc1ccc(CN(C(=O)Nc2cccc(Cl)c2)c2ccccn2)cc1	x	4.8%	x
14	CN1/C(=C/C(=S)NC(=O)C2(C)CC2(Cl)Cl)C(C)(C)c2ccccc21 (stereo not given)	u	1.1%	0.517µM*[inhibitor]
15	CN1/C(=C\C(=S)NC(=O)c2ccccc2Cl)C(C)(C)c2ccccc21	u	-1.8%	u
16	CCCNC[C@H](O)COc1ccccc1C(=O)CCc1ccccc1	x	0.0%	x

#	Vif-APOBEC3G blk	Vif-APOBEC3F blk
9	-10.2%	11.2µM*
10	-1.8%	x
11	5.3%	-0.2%
12	-0.2%	-27.2%
13	3.8%	4.1%
14	1.4%	u
15	0.0%	-7.7%
16	x	x

Next section.
#	structure	Rango complex inh	Epigenetic reg	Rango dissoc inh
17	CC(C)(C)n1ncc2c(=O)n(Cc3ccc(SC(=O)O)cc3Cl)cnc21	x	x	x
18	CCN(CC)c1ccc(/C=C/c2ccnc3ccccc23)cc1	x	x	x
19	CCN(CC)c1ccc(/C=C/c2ccccn2)cc1	x	x	x
20	CN(C)c1ccc(/C=C/c2ccnc3c(Cl)cccc23)cc1	x	x	x
21	C(=C\c1ccccn1)/c1ccccc1	x	x	x
22	COc1cc(N(C)C)c(OC)cc1/C=C/c1ccnc2ccccc12	x	x	x
23	CC(C)(C)n1ncc2c(=O)n(Cc3cc(F)c(F)cc3Cl)cnc21	x	x	x
24	Cc1ccc2[nH]c3c(=O)n(CC(=O)N4CCCC(C)C4)ncc3c2c1 (stereo not given)	x	-1.3%	x

#	Vif-APOBEC3G blk	Vif-APOBEC3F blk
17	2.8%	x
18	11.2µM*	x
19	3.16µM*	x
20	3.55µM*	x
21	1.5%	x
22	7.08µM*	x
23	1.7%	x
24	-7.0%	1.1%

(continued)
#	structure	Rango complex inh	Epigenetic reg	Rango dissoc inh
25	COc1cccc(NC(=O)C(C)n2c(=O)cc(C(F)(F)F)c3c(C)nn(C)c32)c1 (stereo not given)	x	1.5%	x
26	CN(C)c1ccc(/C=C/c2ccnc3ccc(Cl)cc23)cc1	x	x	x
27	CN(C)c1ccc(/C=C/c2ccnc3ccc(-c4ccccc4)cc23)cc1	x	x	x
28	COc1ccc2nc3c(nc2c1)C(=O)c1ccccc1-3	x	-3.0%	x
29	CCOC(=O)/C(C#N)=C\c1ccc(O)c(OC)c1	u	-2.7%	u
30	CCOC(=O)c1c(-c2ccc(C)cc2)csc1NC(=O)/C(C#N)=C/c1ccc(O)c(OC)c1	u	11.2µM*	u
31	Cc1ccc(SC(=O)c2c([N+](=O)[O-])c(C)nn2C)cc1	-0.3%	22.4µM*	18.8%
32	Cc1cc(C)n(C(=O)c2c([N+](=O)[O-])c(C)nn2C)n1	1.3%	1.0%	-14.9%

#	Vif-APOBEC3G blk	Vif-APOBEC3F blk
25	2.0%	-0.4%
26	-16.0%	x
27	7.08µM*	x
28	x	x
29	5.7%	-5.8%
30	10µM*	u
31	-14.4%	-13.0%
32	4.4%	1.7%

Next records:
#	structure	Rango complex inh	Epigenetic reg	Rango dissoc inh
33	CC1=CC(C)(C)Nc2ccc(OC(=O)c3cccnc3)cc21	u	u	-18.9%
34	CC1=CC(C)(C)Nc2ccc(OC(=O)c3ccco3)cc21	-6.2%	u	-7.2%
35	CCOc1ccc2[nH]c3c(=O)n(CCc4ccc(OC)cc4)cnc3c2c1	1.9%	25.1µM*	-1.1%
36	CCOc1ccc2[nH]c3c(=O)n(CCC4=CCCCC4)cnc3c2c1	-0.7%	1.4%	-2.4%
37	O=C(C[N+]12CN3CN(CN(C3)C1)C2)c1ccc(O)c(O)c1	x	x	x
38	CCN1/C(=C/C=C/c2oc3ccc4ccccc4c3[n+]2CC)Oc2ccc3ccccc3c21	u	0.126µM*	u
39	Cc1cccn2c(=O)c3cc(C#N)c(=N)n(CCN4CCOCC4)c3nc12	u	-4.5%	8.2µM*
40	Cc1cccn2c(=O)c3cc(C#N)c(=N)n(CCCN4CCOCC4)c3nc12	u	x	u

#	Vif-APOBEC3G blk	Vif-APOBEC3F blk
33	u	u
34	11.2µM*	u
35	1.6%	4.3%
36	-0.7%	-5.1%
37	3.0%	x
38	-101.3%	-342.6%
39	0.7%	2.9%
40	2.4%	7.9%

New compounds follow.
#	structure	Rango complex inh	Epigenetic reg	Rango dissoc inh
41	O=[N+]([O-])c1ccc(N2CCN(Cc3ccccc3)CC2)c2c1no[n+]2[O-]	x	x	x
42	O=[N+]([O-])c1ccc(N2CCN(Cc3ccccc3)CC2)s1	2.0%	x	-6.5%
43	O=C(Nc1cccc(NC(=O)c2cc([N+](=O)[O-])ccc2Cl)n1)c1cc([N+](=O)[O-])ccc1Cl	20.6µM*	x	1.0%
44	Cc1cc(NC(=O)c2cc([N+](=O)[O-])ccc2Cl)no1	1.1%	0.9%	8.1%
45	Oc1ccccc1-c1nc(NCc2ccccc2)c2ccccc2n1	u	x	-6.1%
46	Oc1ccccc1-c1nc(NCc2cccnc2)c2ccccc2n1	2.2%	0.0%	11.9%
47	Nc1ccc2nc3c(=O)n(C4CCCCC4)c(=O)[nH]c3nc2c1	u	2.2%	-23.5%
48	Cc1ccc(-c2nc(C=Nc3ccc(O)cc3)c(O)o2)cc1	u	u	u

#	Vif-APOBEC3G blk	Vif-APOBEC3F blk
41	7.94µM*	u
42	0.1%	u
43	u	-15.7%
44	-22.7%	8.8%
45	-6.9%	22.4µM*
46	-1.1%	u
47	u	12.6µM*
48	u	25.1µM*

Further records follow.
#	structure	Rango complex inh	Epigenetic reg	Rango dissoc inh
49	CN=Cc1nc(-c2ccccc2)oc1O	4.2%	0.0%	-13.7%
50	COc1ccc(NC(=O)c2cccc3ccccc23)cc1	1.3%	x	14.4%
51	COc1ccc(NC(=O)c2cccc3c(Br)cccc23)cc1	0.7%	x	5.0%
52	Cc1ccc(S(=O)(=O)c2cn(C)c3cc(N4CCCCCC4)c(F)cc3c2=O)cc1	x	-1.2%	x
53	CCCSC1=N/C(=C\c2ccc3c(c2)OCO3)C(=O)S1	u	1.9%	u
54	CCSC1=N/C(=C\c2ccc3c(c2)OCO3)C(=O)S1	u	1.2%	16.4µM*
55	O=Cc1c2[nH]c3ccccc3c2cc2[nH]c3ccccc3c12	x	12.6µM*!	x

#	Vif-APOBEC3G blk	Vif-APOBEC3F blk
49	1.3%	2.8%
50	11.2µM*	-0.1%
51	-5.5%	-4.0%
52	1.7%	-6.6%
53	-2.0%	-5.8%
54	2.1%	x
55	x	x
